Assay results published in ChEMBL document CHEMBL1147595, “Design and synthesis of photoactivatable aryl diketo acid-containing HIV-1 integrase inhibitors as potential affinity probes” (Bioorg Med Chem Lett, 2004).

Target: Human immunodeficiency virus type 1 integrase (Human immunodeficiency virus 1, UniProt Q7ZJM1)
Assay: Inhibition of Integrase catalyzed strand transfer (ST) as measured in an in vitro assay

IC50: 25 µM
SMILES: O=C(O)C(=O)CC(=O)c1ccccc1
